# Data taken from PubChem BioAssay AID434978 (Johns Hopkins Ion Channel Center, 2010).
# The entries are a selection whose mix differs from that of the whole data set. Some results for these compounds are left out of this collection, so the calls shown say nothing about other tests. Calls of active or inactive are those of the source.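 The calls were made as follows: active = primary screen active whose calcium signal fell more than 3 SD beyond the full-serotonin control mean in both duplicate plates; inactive = the rest.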
# Experiment: calcium flux inhibitors in TRPC4/5HT1a cells, confirmation, counter-screen for TRPC4 inhibitor project, cell-based, second counter screen, HEK293 TRPC4/5HT1a, Fluo-4 (AID 434978);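 also: serotonin given first at submaximal then at maximal dose after compound preincubation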
# Conditions: Fluo-4 calcium flux, at 10 µM, serotonin added to trigger calcium flux
row,SMILES,outcome
1,CN(C)c1ccc(C(=O)NCC2(N(C)C)CCCCC2)cc1,inactive
